# Earlier results as cited in PMC4690140.
# What was measured:
# NaV1.4 = NaV1.4 (UniProt P15390)
# NaV1.3 = NaV1.3 (UniProt P08104)
Substance,Kd (NaV1.4) [nM],Kd (NaV1.3) [nM]
delta-conotoxin SVIE (from UniProt Q9XZK5),500,–
mu-conotoxin BuIIIB (from UniProt C1J5M6),–,200
